# Target: ORL1 receptor (Homo sapiens, UniProt P41146)
# Protein sequences, listed by entry. Tags and fused reporters are not part of them. Lines headed by an entry give the natural chain unless they say otherwise; changes in a name come on top.
# UniProt P41146: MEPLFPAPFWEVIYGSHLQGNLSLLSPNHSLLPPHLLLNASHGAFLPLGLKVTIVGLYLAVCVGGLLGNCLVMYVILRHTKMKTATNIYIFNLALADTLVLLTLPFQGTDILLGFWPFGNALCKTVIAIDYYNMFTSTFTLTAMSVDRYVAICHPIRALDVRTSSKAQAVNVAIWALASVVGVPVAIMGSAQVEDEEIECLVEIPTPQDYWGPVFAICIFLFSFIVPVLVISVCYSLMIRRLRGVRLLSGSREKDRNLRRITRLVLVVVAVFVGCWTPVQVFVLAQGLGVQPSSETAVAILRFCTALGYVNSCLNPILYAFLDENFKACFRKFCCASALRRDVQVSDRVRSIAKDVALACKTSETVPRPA
# Test: ORL1 receptor binding assay with 3H-nociceptin/orphanin FQ, membranes of recombinant CHO-ORL1 cells
# Settings: read-out: Ki ORL1 binding assay, 3H-nociceptin/orphanin FQ 0.5 nM
row,SMILES,Ki
1,CN(C)C1(Cc2ccccc2)CCC(OCc2ccccc2F)CC1 (stereo not drawn),400 nM
2,CN(C)C1(Cc2ccccc2)CCC(OCc2ccccc2)CC1 (stereo not drawn),100 nM
3,CN(C)C1(Cc2ccccc2)CCC(OCc2cccc(F)c2)CC1 (stereo not drawn),100 nM
4,CN(C)C1(Cc2ccccc2)CCC(OCc2ccc(F)cc2)CC1 (stereo not drawn),200 nM
5,CN(C)C1(c2ccccc2)CCC(OCc2ccc(F)cc2)CC1 (stereo not drawn),40 nM
6,CN(C)C1(c2ccccc2)CCC(OCc2cccc(F)c2)CC1 (stereo not drawn),30 nM
